In brackets after ≈: the same amount, converted by molar mass.
How the values were obtained:
[1] = Blood level in mice
[2] = Serum level in rabbits; conditions: for max. serumlevel: 10 mg/kg
[3] = Secretion in urine of rabbits
[4] = test system: Sarc. lut. ATCC 9341; experiment: Inhibition zones of blood samples of mice
[5] = test system: Sarcina lutea ATCC 9341; experiment: ABA test, antibacterial activity in urine of mice; conditions: urine of 21/2 hr, disc 7 mm
[6] = test system: Sarcina lutea ATCC 9341; experiment: MIC, agar serial dilution test
[7] = i.m. = 1/2 hr. (tables C-E), 30 min
[8] = oral = 1/2 hr. (tables C-E), 30 min

CC1(C)S[C@@H]2[C@H](NC(=O)[C@H](NC(=O)NP(=O)(O)O)c3ccc(O)cc3)C(=O)N2[C@H]1C(=O)O
max. bloodlevel ([1]; 100 mg/kg i.p.): 134 µg/mL | Serumlevel ([2]; 10 mg/kg i.m., 1/2 hr, 30 min): 68.0 µg/mL | Serumlevel ([2]; 10 mg/kg i.m., 1/4 hr, 15 min): 81.3 µg/mL | Serumlevel ([2]; 10 mg/kg i.m., 1 hr): 38.3 µg/mL | Serumlevel ([2]; 10 mg/kg i.m., 2 hr): 9.6 µg/mL | Serumlevel ([2]; 10 mg/kg i.m., 4 hr): 0.43 µg/mL | Serumlevel ([2]; 10 mg/kg or., 1/2 hr, 30 min): < 0.25 µg/mL | Serumlevel ([2]; 10 mg/kg or., 1/4 hr, 15 min): < 0.25 µg/mL | Serumlevel ([2]; 10 mg/kg or., 1 hr): < 0.25 µg/mL | Serumlevel ([2]; 10 mg/kg or., 2 hr): < 0.25 µg/mL | Serumlevel ([2]; 10 mg/kg or., 4 hr): < 0.25 µg/mL | max. serumlevel [2, 7]: 81.3 µg/mL | max. serumlevel [2, 8]: < 0.25 µg/mL | % of the secreted compound in urine ([3]; 10 mg/kg or., 6 hr): 3.3% | % of the secreted compound in urine ([3]; 10 mg/kg or., 24 hr): 5.9% | % of the administered dose secreted after 24 hr ([3]; 10 mg/kg oral (tables B-E)): 6% | Max. inhibition zone ([4]; 100 mg/kg i.p.): 38 mm | Max. inhibition zone ([4]; 100 mg/kg or.): 7 mm | ABA, inhibition zone of urine ([5]; 100 mg/kg i.p.): 60 mm | ABA, inhibition zone of urine ([5]; 100 mg/kg or.): 34 mm

COP(=O)(O)NC(=O)N[C@@H](C(=O)N[C@@H]1C(=O)N2[C@@H]1SC(C)(C)[C@@H]2C(=O)O)c1ccc(O)cc1
max. bloodlevel ([1]; 100 mg/kg i.p.): 23 µg/mL | max. bloodlevel ([1]; 100 mg/kg or.): 1.6 µg/mL | Serumlevel ([2]; 10 mg/kg i.m., 1/2 hr, 30 min): 18.3 µg/mL | Serumlevel ([2]; 10 mg/kg i.m., 1/4 hr, 15 min): 25.3 µg/mL | Serumlevel ([2]; 10 mg/kg i.m., 1 hr): 10.3 µg/mL | Serumlevel ([2]; 10 mg/kg i.m., 2 hr): 3.3 µg/mL | Serumlevel ([2]; 10 mg/kg or., 1/2 hr, 30 min): 0.3 µg/mL | Serumlevel ([2]; 10 mg/kg or., 1/4 hr, 15 min): 0.3 µg/mL | Serumlevel ([2]; 10 mg/kg or., 1 hr): 0.3 µg/mL | Serumlevel ([2]; 10 mg/kg or., 2 hr): < 0.2 µg/mL | Serumlevel ([2]; 10 mg/kg or., 4 hr): < 0.05 µg/mL | % of the administered dose secreted after 24 hr ([3]; 10 mg/kg i.m. (tables B-E)): 110% | % of the secreted compound in urine ([3]; 10 mg/kg i.m., 6 hr): 102% | % of the secreted compound in urine ([3]; 10 mg/kg i.m., 24 hr): 110% | % of the secreted compound in urine ([3]; 10 mg/kg or., 6 hr): 13.4% | % of the secreted compound in urine ([3]; 10 mg/kg or., 24 hr): 20.8% | % of the administered dose secreted after 24 hr ([3]; 10 mg/kg oral (tables B-E)): 20.8% | Max. inhibition zone ([4]; 100 mg/kg i.p.): 27 mm | Max. inhibition zone ([4]; 100 mg/kg or.): 14 mm | ABA, inhibition zone of urine ([5]; 100 mg/kg i.p.): 52 mm | ABA, inhibition zone of urine ([5]; 100 mg/kg or.): 47 mm

CCOP(=O)(O)NC(=O)N[C@@H](C(=O)N[C@@H]1C(=O)N2[C@@H]1SC(C)(C)[C@@H]2C(=O)O)c1ccc(O)cc1
max. bloodlevel ([1]; 100 mg/kg i.p.): 37 µg/mL | max. bloodlevel ([1]; 100 mg/kg or.): 2 µg/mL | Serumlevel ([2]; 10 mg/kg i.m., 1/2 hr, 30 min): 19.7 µg/mL | Serumlevel ([2]; 10 mg/kg i.m., 1/4 hr, 15 min): 23.4 µg/mL | Serumlevel ([2]; 10 mg/kg i.m., 1 hr): 13.0 µg/mL | Serumlevel ([2]; 10 mg/kg i.m., 2 hr): 4.7 µg/mL | Serumlevel ([2]; 10 mg/kg i.m., 4 hr): 0.6 µg/mL | Serumlevel ([2]; 10 mg/kg or., 1/2 hr, 30 min): 0.64 µg/mL | Serumlevel ([2]; 10 mg/kg or., 1/4 hr, 15 min): < 0.57 µg/mL | Serumlevel ([2]; 10 mg/kg or., 1 hr): 0.64 µg/mL | Serumlevel ([2]; 10 mg/kg or., 2 hr): < 0.54 µg/mL | Serumlevel ([2]; 10 mg/kg or., 4 hr): < 0.5 µg/mL | max. serumlevel [2, 7]: 23.4 µg/mL | max. serumlevel [2, 8]: 0.64 µg/mL | % of the administered dose secreted after 24 hr ([3]; 10 mg/kg i.m. (tables B-E)): 46-63% | % of the secreted compound in urine ([3]; 10 mg/kg i.m., 6 hr): 45.8% | % of the secreted compound in urine ([3]; 10 mg/kg i.m., 24 hr): < 63.0% | % of the secreted compound in urine ([3]; 10 mg/kg or., 6 hr): < 0.62% | % of the secreted compound in urine ([3]; 10 mg/kg or., 24 hr): < 1.22% | % of the administered dose secreted after 24 hr ([3]; 10 mg/kg oral (tables B-E)): < 1.22% | MIC ([6]; agar serial dilution): 0.5 µg/mL (≈ 0.968 µM) | MIC ([6]; tables B-E): 0.5 µg/mL (≈ 0.968 µM) | Max. inhibition zone ([4]; 100 mg/kg i.p.): 23 mm | Max. inhibition zone ([4]; 100 mg/kg or.): 9 mm | ABA, inhibition zone of urine ([5]; 100 mg/kg i.p.): 51 mm | ABA, inhibition zone of urine ([5]; 100 mg/kg or.): 41 mm

Reference: patent US4067986A, “Novel penicillanic acid” (Gist-Brocades N.V., priority 1974, dated 1978)
